Active and inactive are the calls of the source. The calls are words filed in the database; no cut-off is given here.
How the values were obtained:
Rattus norvegicus [1] = experiment: Antidepressant activity in Wistar rat model of scopolamine-induced depressive like behavior assessed as increased swimming time at 1 mg/kg measured after 24 hrs by forced swimming test; format: functional, organism-based
Rattus norvegicus [2] = experiment: Antidepressant activity in Wistar rat model of scopolamine-induced depressive like behavior assessed as decrease in immobility time at 1 mg/kg measured after 24 hrs by forced swimming test; format: functional, organism-based

SMILES: CN(C)CCCN1c2ccccc2CCc2ccccc21
- Activity (Rattus norvegicus [1]): Active
- Activity (Rattus norvegicus [2]): Active

Reference: ChEMBL document CHEMBL5038639, “Designed Peptide Inhibitors of STEP Phosphatase-GluA2 AMPA Receptor Interaction Enhance the Cognitive Performance in Rats” (J Med Chem, 2022)
